Experimental data: patent US20250318525A1, “COMPOSITIONS TO CONTROL THE RELEASE RATES OF CHEMICAL PESTICIDES” (priority 2020, published 2025)
Values after ≈ are worked out from the molar mass of the structure shown.

Row | Compound | solubility (as listed in FIG. 36) [µg/mL] | water solubility, comparison in words (2,4D and its metal pairings, FIG. 36)
1 | O=C(O)COc1ccc(Cl)cc1Cl [Ca(2,4D)2] | 3390 (≈ 15.3 mM) | 
2 | O=C([O-])COc1ccc(Cl)cc1Cl.[Na+] [Na(2,4D)] |  | significantly higher water solubility than neutral 2,4D
